# scFv variants of Ab-14 (heavy chain) against a SARS-CoV-2 spike peptide

Data: MIT Lincoln Laboratory AlphaSeq set, Engelhart et al. 2022, doi:10.1038/s41597-022-01779-4, as distributed in FLAb.

All variants were tested on one target, the spike HR2 peptide PDVDLGDISGINAS (SARS-CoV-2).

Parent scFv Ab-14: VH joined to VL by a (GGGGS)3 linker. Changes lie in the heavy chain CDRs alone.
VH: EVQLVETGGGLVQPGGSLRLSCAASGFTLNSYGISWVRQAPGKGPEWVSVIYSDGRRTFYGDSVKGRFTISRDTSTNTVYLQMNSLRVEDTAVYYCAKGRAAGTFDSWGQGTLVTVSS
VL: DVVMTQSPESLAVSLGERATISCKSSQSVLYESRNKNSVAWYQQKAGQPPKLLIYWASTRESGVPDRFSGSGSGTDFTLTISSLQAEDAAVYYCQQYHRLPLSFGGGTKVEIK

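Phage display of a naive human antibody library on the peptide gave the parent. AAYL49 was designed without a model: most single CDR substitutions and a random sample of double and triple ones. AlphaSeq pools MATa yeast showing the antibodies with MATalpha yeast showing the peptide. Pairs that bind mate more often; barcode pairs of the diploids are counted by sequencing. A regression on co-assayed BCL2-family reference pairs converts the normalised counts of each replicate to an apparent Kd. Mating was done three times.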

Substitutions are numbered in sequence along the VH above, starting at 1 (not Kabat).
This list gathers variants with a substitution at R57 (VH, numbered from residue 1).
The Kd shown is the geometric mean over detected replicates; a lower Kd is a better binder.
Where no diploid with the target was found in any replicate, the entry reads "nd": below detection, most likely a poor binder, though not proof of it.
The list is sorted by this average, lowest first, undetected variants last.
Nonspecific signal, from three strains lacking the peptide, appeared in 15% of pairings of library AAYL49, centred on 11 µM (5% of these signals below 680 nM); values are not corrected for it.
In this assay the parent's reference entry averaged 4.4 nM; its copy inside this library read 13 µM (one replicate of three).

Variant T28D/R57H/T58H showed 64 nM (3 of 3 replicates). Variant G55E/R57P/D106I gave 420 nM (1 of 3 replicates). Variant T28D/R57K/G99R showed 560 nM (1 of 3 replicates). Variant R56E/R57A/A101I showed 580 nM (2 of 3 replicates). Variant Y52Q/S53H/R57M showed 1.5 µM (1 of 3 replicates).

For R57T/K65H, the assay gave 1.7 µM (2 of 3 replicates). Variant Y32Q/I34N/R57C showed 5.4 µM (1 of 3 replicates). Variant R57V/D62G/D106Y showed 11 µM (2 of 3 replicates). With R56A/R57S/F105Y the result was 11 µM (2 of 3 replicates). Variant N30P/G55Q/R57Y showed 46 µM (2 of 3 replicates).

Variant R57Q/S63D/K65T gave 47 µM (3 of 3 replicates). With N30P/R56G/R57F the result was 61 µM (2 of 3 replicates). For R57P/D106L, the assay gave 120 µM (3 of 3 replicates). For G26K/D54F/R57V, the assay gave nd (0 of 3 replicates). Variant R57Q/Y60F gave nd (0 of 3 replicates).

Variant I34F/S35L/R57C gave nd (0 of 3 replicates). Variant L29G/R57L/F105V showed nd (0 of 3 replicates). For R57T/G61M/F105S, the assay gave nd (0 of 3 replicates). Variant G26V/R57T/G103L gave nd (0 of 3 replicates). Variant R57W/A102M/T104I gave nd (0 of 3 replicates).

With D54W/R57S/T58Q the result was nd (0 of 3 replicates). Variant I51G/R57M/G99L showed nd (0 of 3 replicates). For R57I/V64T/A101F, the assay gave nd (0 of 3 replicates). With S35L/R57L/A102C the result was nd (0 of 3 replicates). For Y52V/D54Y/R57E, the assay gave nd (0 of 3 replicates).

Variant R57K/D62Y/V64C gave nd (0 of 3 replicates). Variant R57L/S63C/R100S showed nd (0 of 3 replicates). Variant R57Y/F105E showed nd (0 of 3 replicates). With R57M/R100S/S107K the result was nd (0 of 3 replicates). Variant V50C/R57N/D62L gave nd (0 of 3 replicates).

For reference, 4 entries of the list once more:

{"changes": "G26K/D54F/R57V", "Kd (apparent)": "nd", "replicates with signal": "0 of 3"}
{"changes": "R57T/G61M/F105S", "Kd (apparent)": "nd", "replicates with signal": "0 of 3"}
{"changes": "Y32Q/I34N/R57C", "Kd (apparent)": "5.4 µM", "replicates with signal": "1 of 3"}
{"changes": "T28D/R57K/G99R", "Kd (apparent)": "560 nM", "replicates with signal": "1 of 3"}